Data on four compounds can be found in patent US10604541B2, “Glucokinase activators and methods of using same” (BRISTOL-MYERS SQUIBB COMPANY, priority 2016, dated 2020).

Protein sequences, listed by entry. Tags and fused reporters are not part of them. Residues count along the entry.
UniProt P35557, 1-466 isoform 2: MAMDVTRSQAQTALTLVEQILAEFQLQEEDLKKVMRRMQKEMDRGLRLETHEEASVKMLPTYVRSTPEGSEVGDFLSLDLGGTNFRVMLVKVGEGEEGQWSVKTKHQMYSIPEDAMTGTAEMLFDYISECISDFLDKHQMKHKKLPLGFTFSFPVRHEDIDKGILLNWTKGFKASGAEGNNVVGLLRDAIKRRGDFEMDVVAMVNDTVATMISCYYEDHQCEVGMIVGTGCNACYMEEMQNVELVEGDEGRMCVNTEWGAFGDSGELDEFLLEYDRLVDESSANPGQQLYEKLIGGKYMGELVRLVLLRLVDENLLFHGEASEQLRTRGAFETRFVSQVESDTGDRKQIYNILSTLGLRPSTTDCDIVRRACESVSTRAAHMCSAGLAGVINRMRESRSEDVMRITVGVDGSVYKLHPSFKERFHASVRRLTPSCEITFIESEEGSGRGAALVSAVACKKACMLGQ
UniProt P52792, whole entry: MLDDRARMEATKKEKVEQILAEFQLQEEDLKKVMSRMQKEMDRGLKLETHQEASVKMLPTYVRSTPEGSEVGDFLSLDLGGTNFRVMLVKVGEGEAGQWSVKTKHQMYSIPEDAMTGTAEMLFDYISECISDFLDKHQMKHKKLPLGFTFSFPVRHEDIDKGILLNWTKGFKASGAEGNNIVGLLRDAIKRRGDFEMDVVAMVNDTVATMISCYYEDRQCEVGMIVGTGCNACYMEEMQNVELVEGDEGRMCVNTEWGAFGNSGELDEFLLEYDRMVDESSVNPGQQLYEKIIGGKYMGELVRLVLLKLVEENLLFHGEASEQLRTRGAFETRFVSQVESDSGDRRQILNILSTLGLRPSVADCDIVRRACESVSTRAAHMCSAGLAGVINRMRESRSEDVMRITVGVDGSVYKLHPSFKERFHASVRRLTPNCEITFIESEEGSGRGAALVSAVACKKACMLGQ
UniProt P05177, whole entry: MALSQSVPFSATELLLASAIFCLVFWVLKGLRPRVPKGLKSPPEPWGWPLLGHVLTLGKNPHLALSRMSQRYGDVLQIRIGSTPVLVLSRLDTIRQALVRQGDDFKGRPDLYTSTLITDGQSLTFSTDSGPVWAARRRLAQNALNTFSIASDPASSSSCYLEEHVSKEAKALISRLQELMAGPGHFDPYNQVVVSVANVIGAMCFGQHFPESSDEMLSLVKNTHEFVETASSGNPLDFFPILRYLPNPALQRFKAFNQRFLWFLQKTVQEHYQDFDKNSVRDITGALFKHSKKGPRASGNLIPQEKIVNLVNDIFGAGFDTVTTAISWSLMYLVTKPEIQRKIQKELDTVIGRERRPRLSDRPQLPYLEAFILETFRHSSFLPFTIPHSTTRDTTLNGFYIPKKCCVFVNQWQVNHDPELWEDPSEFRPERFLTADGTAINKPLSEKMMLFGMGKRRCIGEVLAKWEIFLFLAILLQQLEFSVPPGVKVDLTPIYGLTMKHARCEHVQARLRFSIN
UniProt P11712, whole entry: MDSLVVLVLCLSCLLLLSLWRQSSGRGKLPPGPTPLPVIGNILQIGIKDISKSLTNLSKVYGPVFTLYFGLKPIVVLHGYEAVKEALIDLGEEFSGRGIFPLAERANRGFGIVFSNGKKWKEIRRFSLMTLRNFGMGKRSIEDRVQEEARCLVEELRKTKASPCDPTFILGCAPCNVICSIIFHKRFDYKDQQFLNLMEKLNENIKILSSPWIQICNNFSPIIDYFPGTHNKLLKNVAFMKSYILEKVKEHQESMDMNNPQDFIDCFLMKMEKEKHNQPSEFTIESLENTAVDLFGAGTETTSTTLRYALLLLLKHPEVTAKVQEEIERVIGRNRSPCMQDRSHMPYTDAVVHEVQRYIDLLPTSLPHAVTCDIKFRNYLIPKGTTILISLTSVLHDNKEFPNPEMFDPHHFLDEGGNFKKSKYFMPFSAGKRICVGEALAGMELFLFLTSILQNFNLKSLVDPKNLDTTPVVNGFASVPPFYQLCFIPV
UniProt P33261, whole entry: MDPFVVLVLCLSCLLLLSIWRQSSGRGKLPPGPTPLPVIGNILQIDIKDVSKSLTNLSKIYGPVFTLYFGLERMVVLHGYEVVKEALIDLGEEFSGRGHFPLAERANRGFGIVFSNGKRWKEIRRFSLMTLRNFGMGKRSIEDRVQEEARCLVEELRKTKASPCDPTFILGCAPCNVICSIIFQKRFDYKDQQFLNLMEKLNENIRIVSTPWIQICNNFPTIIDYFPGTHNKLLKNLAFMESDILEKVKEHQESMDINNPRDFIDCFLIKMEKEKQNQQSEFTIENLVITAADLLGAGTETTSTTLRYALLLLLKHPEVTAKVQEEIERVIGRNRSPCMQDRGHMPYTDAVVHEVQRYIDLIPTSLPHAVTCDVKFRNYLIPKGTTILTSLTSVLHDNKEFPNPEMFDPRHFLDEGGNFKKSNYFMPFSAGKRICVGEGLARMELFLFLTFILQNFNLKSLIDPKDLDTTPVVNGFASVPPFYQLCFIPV
UniProt P10635, whole entry: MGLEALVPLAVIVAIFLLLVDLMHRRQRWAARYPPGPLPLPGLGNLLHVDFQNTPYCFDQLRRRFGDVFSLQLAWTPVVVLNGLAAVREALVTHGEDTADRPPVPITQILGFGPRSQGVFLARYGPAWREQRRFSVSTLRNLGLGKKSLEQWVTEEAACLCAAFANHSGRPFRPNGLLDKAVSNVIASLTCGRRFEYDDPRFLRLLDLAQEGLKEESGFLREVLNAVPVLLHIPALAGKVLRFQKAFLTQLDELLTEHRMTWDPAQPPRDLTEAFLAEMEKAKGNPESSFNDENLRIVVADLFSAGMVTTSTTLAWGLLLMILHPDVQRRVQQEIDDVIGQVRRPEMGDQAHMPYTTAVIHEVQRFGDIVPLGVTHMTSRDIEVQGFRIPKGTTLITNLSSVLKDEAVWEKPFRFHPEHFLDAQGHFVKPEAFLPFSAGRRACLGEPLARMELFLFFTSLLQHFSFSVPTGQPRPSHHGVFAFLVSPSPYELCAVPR
UniProt P08684, whole entry: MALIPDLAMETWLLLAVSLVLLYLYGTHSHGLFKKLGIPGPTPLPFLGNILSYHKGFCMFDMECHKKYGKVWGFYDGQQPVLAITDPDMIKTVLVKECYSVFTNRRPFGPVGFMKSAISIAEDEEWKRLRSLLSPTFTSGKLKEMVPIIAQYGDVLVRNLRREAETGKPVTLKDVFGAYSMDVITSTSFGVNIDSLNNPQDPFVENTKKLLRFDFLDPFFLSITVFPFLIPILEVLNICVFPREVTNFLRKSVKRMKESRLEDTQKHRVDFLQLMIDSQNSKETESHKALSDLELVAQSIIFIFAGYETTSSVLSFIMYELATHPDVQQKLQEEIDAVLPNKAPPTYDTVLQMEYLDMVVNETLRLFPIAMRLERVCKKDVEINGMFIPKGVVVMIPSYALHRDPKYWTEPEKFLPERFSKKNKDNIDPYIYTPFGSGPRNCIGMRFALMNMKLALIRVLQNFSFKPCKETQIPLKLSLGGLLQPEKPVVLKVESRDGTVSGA
UniProt P10632, whole entry: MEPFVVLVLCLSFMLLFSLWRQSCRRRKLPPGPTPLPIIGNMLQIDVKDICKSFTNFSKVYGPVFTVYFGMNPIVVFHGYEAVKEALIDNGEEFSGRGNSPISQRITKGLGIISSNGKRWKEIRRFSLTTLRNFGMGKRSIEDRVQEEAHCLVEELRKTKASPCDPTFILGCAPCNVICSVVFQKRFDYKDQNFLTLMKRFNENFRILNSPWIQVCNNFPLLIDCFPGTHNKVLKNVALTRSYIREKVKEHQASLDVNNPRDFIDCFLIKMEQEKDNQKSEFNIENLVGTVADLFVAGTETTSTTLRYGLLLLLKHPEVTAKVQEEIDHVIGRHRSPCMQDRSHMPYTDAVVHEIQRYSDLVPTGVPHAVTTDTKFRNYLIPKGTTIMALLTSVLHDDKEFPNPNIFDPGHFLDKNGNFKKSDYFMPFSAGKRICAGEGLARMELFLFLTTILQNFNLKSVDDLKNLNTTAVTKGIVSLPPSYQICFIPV

A word on the pIC50: it is the negative decadic logarithm of the IC50, by convention in mol/L. Broadly, the pEC50 is the negative decadic logarithm of the EC50, by convention in mol/L. Broadly, the Aqueous Solubility is how much of the substance goes into solution per volume. A higher Aqueous Solubility goes with much dissolved substance.

The structures appear in SMILES notation. pEC50, pIC50: −log10 of the molar value.

For one data set, the target named is Human Glucokinase (Homo sapiens, UniProt P35557). Briefly: Glucokinase tandem enzymatic assay (human GK). The data set is classed as biochemical. The note with it: for pIC50: read-out: Human Glucokinase IC50.
In another data set the target is Mouse Glucokinase (Mus musculus, UniProt P52792). In words: Glucokinase activation, mouse GK. The data set is classed as biochemical. The note with it: read-out: Mouse Glucokinase EC50.
The target in another data set is CYP450 1A2 (Homo sapiens, UniProt P05177). In words: CYP450 1A2 inhibition. As to conditions: read-out: CYP450 1A2 IC50. The class given is in vitro ADME.
Another data set concerns the target CYP450 2C9 (Homo sapiens, UniProt P11712). Briefly: CYP450 2C9 inhibition. The class given is in vitro ADME. As to conditions: read-out: CYP450 2C9 IC50.
For another data set, the target named is CYP450 2C19 (Homo sapiens, UniProt P33261). Briefly: CYP450 2C19 inhibition. The data set is classed as in vitro ADME. The note with it: read-out: CYP450 2C19 IC50.
The target of another data set is CYP450 2D6 (Homo sapiens, UniProt P10635). Briefly: CYP450 2D6 inhibition. The data set is classed as in vitro ADME. As to conditions: read-out: CYP450 2D6 IC50.
The target of another data set is CYP450 3A4 (Homo sapiens, UniProt P08684). In words: CYP450 3A4 inhibition. The data set is classed as in vitro ADME. As to conditions: read-out: CYP450 3A4 IC50.
Data set [1] in a line: Metabolic stability in human liver microsomes. The class given is in vitro ADME. A general note: Liver microsomes are a subcellular fraction often used to study metabolism.
The nature of data set [2]: Metabolic stability, mouse. The class given is in vitro ADME.
The nature of the next data set: Aqueous solubility. The data set is classed as physicochemical.
For data set [3], the system named is male DIO (diet-induced obese) C57BL/6J mice. Briefly: Oral glucose tolerance test (OGTT) in DIO mice. The note with it: AUC 0-120 min.
Data set [4] can be described thus: Pharmacokinetic study in mice (plasma and liver). The data set is classed as in vivo, mouse. As to conditions: C57/B16J mice, 10 mg/kg oral; for Plasma AUC(4 hr): 0-4 hr; for Plasma (0.5 hr): 0.5 hr post dose; for Plasma (1 hr): 1 hr post dose; for Plasma (2 hr): 2 hr post dose; for Plasma (4 hr): 4 hr post dose.
Another data set deals with CYP450 2C8 (Homo sapiens, UniProt P10632). In words: CYP450 2C8 inhibition. The class given is in vitro ADME. As to conditions: read-out: CYP450 2C8 IC50.

Take `CCO[P@](C)(=O)Cc1csc(NC(=O)c2cc(Oc3ccc(S(C)(=O)=O)cc3)cc(O[C@@H](C)COC)c2)n1` (single isomer, unassigned): the pIC50 on Human Glucokinase was 7.10. Moreover, the pEC50 on Mouse Glucokinase was 7.12. For the same compound, the pIC50 at CYP450 1A2 was under 4.40. On CYP450 2C9, the pIC50 was 5.07. In addition, the negative logarithm of the IC50 (pIC50) at CYP450 2C19 is 4.49. Moreover, the pIC50 at CYP450 2D6 was under 4.40. Also, on CYP450 3A4, the pIC50 was under 4.40. In addition, the “Metabolic Stability Human Liver Microsomes (0.5 μM)” value in [1] is given as 54%. In addition, the “Metabolic Stability Mouse (0.5 μM)” value in data set [2] stood at 90%. The “Aqueous Solubility” value in the data set “Aqueous solubility” turned out to be 9 µg/mL. Besides, the “Glucose lowering (AUC) (120 min)” value in data set [3] (oral dose 10 mg/kg = 17 μmol/kg) is −50%. In addition, in data set [4], the Liver/Plasma ratio was 16.9, the “Plasma AUC(4 hr)” value amounted to 4.21 µM·h, the “Plasma (0.5 hr)” value came out at 435 ± 100 nM and the “Plasma (1 hr)” value is on record as 571 ± 18 nM. In data set [4], the “Plasma (2 hr)” value is 467 ± 49 nM and the “Plasma (4 hr)” value is 485 ± 290 nM. The “Liver (1 hr)” value in [4] (liver concentration 1 hr post dose) is 9.68 ± 0.351 µM.
Regarding `CCOP(=O)(Cc1csc(NC(=O)c2cc(O[C@@H](C)CO)cc(O[C@@H](C)Cc3ccccc3)c2)n1)OCC`, the negative logarithm of the IC50 (pIC50) on Human Glucokinase is 6.81. In addition, the negative logarithm of the EC50 (pEC50) on Mouse Glucokinase was 7.62. The pIC50 on CYP450 1A2 is under 4.40. The pIC50 at CYP450 2C9 is 6.00. In addition, the pIC50 at CYP450 2C19 was 6.22. Further, the pIC50 on CYP450 2D6 is under 4.40. On CYP450 3A4, the negative logarithm of the IC50 (pIC50) was under 4.40. Besides, the “Metabolic Stability Human Liver Microsomes (0.5 μM)” value in data set [1] came to 26%. The “Metabolic Stability Mouse (0.5 μM)” value in data set [2] came out at 64%. Also, the “Glucose lowering (AUC) (120 min)” value in data set [3] (oral dose 30 μmol/kg) is −48%. In data set [4], the Liver/Plasma ratio was 36.8, the “Plasma AUC(4 hr)” value turned out to be 3.28 µM·h, the “Plasma (0.5 hr)” value is on record as 1876 ± 302 nM and the “Plasma (1 hr)” value is on record as 1542 ± 544 nM. In addition, in [4], the “Plasma (2 hr)” value is listed as 754 ± 210 nM and the “Plasma (4 hr)” value turned out to be 214 ± 107 nM.
For `CCS(=O)(=O)c1ccc(Oc2cc(O[C@@H](C)CO)cc(C(=O)Nc3ccn(C)n3)c2)cn1`, the pEC50 at Human Glucokinase (read-out: Human Glucokinase EC50) is 7.19; at Mouse Glucokinase, 7.32. For the same compound, the pIC50 at Human Glucokinase was 6.87; on CYP450 1A2 it was under 5.17; on CYP450 2C8, under 5.17; at CYP450 2C9, under 5.17; on CYP450 2C19, under 4.70; on CYP450 2D6, under 5.17. Also, the pIC50 on CYP450 3A4 is under 5.17. In addition, the “Metabolic Stability Human Liver Microsomes (0.5 μM)” value in [1] came out at 100%. Further, in data set [2], the “Metabolic Stability Mouse (0.5 μM)” value was determined as 100%. In the data set “Aqueous solubility”, the “Aqueous Solubility” value was determined as 730 µg/mL. Besides, the “Glucose lowering (AUC) (120 min)” value in data set [3] (oral dose 10 μmol/kg) is recorded as −67%. In data set [4], the Liver/Plasma ratio was 1.1. Further, in [4], the “Plasma AUC(4 hr)” value stood at 36.53 µM·h. Further, the “Plasma (2 hr)” value in [4] is on record as 7031 ± 1179 nM. In addition, in [4], the “Plasma (4 hr)” value was 1699 ± 28 nM.
For the compound `O=C(O)c1ccc(NC(=O)[C@H](CC2CCCC2)n2cnc(C(F)(F)F)c2)nc1`, at CYP450 2C8, the negative logarithm of the IC50 (pIC50) was 4.75. In addition, the “Metabolic Stability Human Liver Microsomes (0.5 μM)” value in [1] turned out to be 96%. The “Metabolic Stability Mouse (0.5 μM)” value in data set [2] is 92%. For the same compound, the “Glucose lowering (AUC) (120 min)” value in data set [3] (oral dose 10 μmol/kg) is −20%. Also, the “Glucose lowering (AUC) (120 min)” value in [3] (oral dose 30 μmol/kg) was −43%. Moreover, in data set [4], the “Plasma AUC(4 hr)” value was 36.91 µM·h, the “Plasma (0.5 hr)” value was 7285 ± 856 nM and the “Plasma (4 hr)” value turned out to be 6712 ± 2591 nM.
